# AlphaSeq binding of Ab-95 light chain variants to a spike HR2 peptide

Target: peptide PDVDLGDISGINAS, taken from heptad repeat 2 (HR2) of SARS-CoV-2 spike.

Parent scFv Ab-95: VH joined to VL by the linker GGGGSGGGGSGGGGS. Changes lie in the light chain CDRs alone.
VH: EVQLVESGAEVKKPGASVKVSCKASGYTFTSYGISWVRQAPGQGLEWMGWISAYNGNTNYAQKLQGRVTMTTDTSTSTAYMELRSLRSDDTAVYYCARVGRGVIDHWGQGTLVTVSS
VL: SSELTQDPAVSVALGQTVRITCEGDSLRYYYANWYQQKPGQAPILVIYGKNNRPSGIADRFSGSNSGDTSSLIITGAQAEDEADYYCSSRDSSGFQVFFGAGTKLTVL

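The starting antibody came from a phage panning campaign against this peptide. Library AAYL52 holds single substitutions and randomly drawn double and triple substitutions in the CDRs. In AlphaSeq, yeast of one mating type display the scFv and yeast of the other type display the target. Binding brings cells together so that they mate, and sequencing counts the barcode pairs among the diploids. Read counts were normalised to the haploid input and turned into Kd by a linear fit to BCL2-family pairs of known affinity, for each replicate. The assay was run in three technical replicates.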

Changes read parent residue, position, new residue, counted from the first residue of the VL shown. Each Kd is an estimate from the mating assay, the geometric mean of the replicates in which the pair was seen; lower is stronger. "not detected" means that the variant was in the library but no mating with the target was seen in any replicate; the authors take this as a sign of poor binding, and no number exists. As a blank, each scFv also met three strains without target: over library AAYL52, 28% of these pairings were detected, typically at 8.2 µM and seldom below 800 nM.

apparent Kd	detected	changes
1.2 µM	3/3	R53I Q96N
7.1 µM	2/3	G24V R28K Q96F
11 µM	1/3	N33S R53C G94S
1.1 µM	3/3	P54M R90P S93M
not detected	0/3	G49R V97L F98V
210 µM	1/3	D25P S93V F98V
not detected	0/3	E23P S93Q Q96K
60 nM	3/3	E23A D25A S92M
7.2 µM	3/3	A32N K50H N52R
960 nM	1/3	Y30I A32G R90V
96 nM	3/3	L27S N33D S93W
not detected	0/3	N51I D91Y S92E
40 µM	1/3	S26L N51H S55F
29 nM	3/3	L27S Y30P D91Y
92 nM	3/3	R28K S55Y
97 nM	3/3	S89V D91N F95Y
130 µM	1/3	Y29M N52L D91L
1.6 µM	3/3	R28Q Y29P K50W
25 µM	1/3	K50R R53S V97W
250 nM	3/3	Y29S F95N F98C
1.9 µM	3/3	D25Y S26A R53K
3.9 µM	2/3	A32C N51D R53S
not detected	0/3	Y31V S89Q Q96L
not detected	0/3	S26E S88P R90E
not detected	0/3	G49D R53K D91W
56 nM	3/3	N52L S93T
not detected	0/3	R53G S55N F95I
530 nM	3/3	Y29V N52L Q96P
290 nM	3/3	Y29K Y30L G94N
18 µM	2/3	N33K G49W S89V
18 µM	3/3	Y29V P54F S55R
560 nM	2/3	R28K Y31I F95E
830 nM	3/3	N52I S55F S89C
3.3 µM	1/3	G24P R53Y S89I
540 nM	3/3	G94Y F95V F98V
61 µM	1/3	N33K N51I F98W
8.9 µM	1/3	L27M R28I P54K
58 µM	2/3	Y29I N33A S55L
8.1 µM	1/3	Y31G S89N V97C
39 µM	1/3	D25Y A32G S88T
6.6 µM	3/3	G24P P54Y S89A
24 µM	2/3	E23S L27P K50R
310 nM	3/3	G24R K50N G94T
not detected	0/3	R53G R90F V97H
3.7 µM	3/3	R28G S93M
16 µM	1/3	R28V G49Q F95V
28 nM	3/3	Y29N R90V
not detected	0/3	L27G N33Q F98M
not detected	0/3	N51E G94N F98S
1.3 µM	3/3	D25M Y30V N33I
130 nM	3/3	D25G F98K
not detected	0/3	N33S N51W R53N
not detected	0/3	R53W S93I
7.5 µM	3/3	N51H S92H Q96P
170 nM	3/3	E23H Y29K
77 µM	1/3	A32E S93A F95L
5.3 µM	2/3	E23Q N33E S89H
770 nM	3/3	L27E Y31M S92V
not detected	0/3	R53F S93M V97D
7.5 µM	3/3	L27I R28P A32Q
34 nM	3/3	Y30H G49A N52L
16 µM	2/3	R53A S93R Q96A
2.8 µM	2/3	G24W Y31D N52F
31 µM	2/3	N52Q R53C P54C
440 nM	3/3	Y31H G49Q P54N
1.7 µM	1/3	N51H S93E V97A
54 µM	2/3	R28E Y30V S88Q
9.7 µM	1/3	N33V G94N F98L
930 nM	3/3	Y29V S92A
30 µM	3/3	G24D R53E F95A
4.6 µM	3/3	G24A N52A S55F
500 nM	3/3	S89L R90D Q96W
19 µM	3/3	N33E N52D P54R
100 nM	3/3	E23K N52T Q96K
1.2 µM	3/3	N51E G94S
not detected	0/3	Y31D N33A R90L
3.8 µM	3/3	N52S F95E Q96Y
16 µM	1/3	L27W G94K V97L
3.5 µM	2/3	G24D S93R F98T

Top 8 of the variants detected in all replicates, tightest first:

changes	apparent Kd	detected
Y29N R90V	28 nM	3/3
L27S Y30P D91Y	29 nM	3/3
Y30H G49A N52L	34 nM	3/3
N52L S93T	56 nM	3/3
E23A D25A S92M	60 nM	3/3
R28K S55Y	92 nM	3/3
L27S N33D S93W	96 nM	3/3
S89V D91N F95Y	97 nM	3/3

In this assay the parent's reference entry averaged 200 nM; its copy inside this library read 180 nM.

Reference: Engelhart et al. 2022, doi:10.1038/s41597-022-01779-4. File: FLAb, binding data.